The IC50 is the point on the concentration scale where inhibition reaches its midpoint.

Chains of the proteins cited; added tags and fusions are not shown.
UniProt Q9UBF8, whole entry: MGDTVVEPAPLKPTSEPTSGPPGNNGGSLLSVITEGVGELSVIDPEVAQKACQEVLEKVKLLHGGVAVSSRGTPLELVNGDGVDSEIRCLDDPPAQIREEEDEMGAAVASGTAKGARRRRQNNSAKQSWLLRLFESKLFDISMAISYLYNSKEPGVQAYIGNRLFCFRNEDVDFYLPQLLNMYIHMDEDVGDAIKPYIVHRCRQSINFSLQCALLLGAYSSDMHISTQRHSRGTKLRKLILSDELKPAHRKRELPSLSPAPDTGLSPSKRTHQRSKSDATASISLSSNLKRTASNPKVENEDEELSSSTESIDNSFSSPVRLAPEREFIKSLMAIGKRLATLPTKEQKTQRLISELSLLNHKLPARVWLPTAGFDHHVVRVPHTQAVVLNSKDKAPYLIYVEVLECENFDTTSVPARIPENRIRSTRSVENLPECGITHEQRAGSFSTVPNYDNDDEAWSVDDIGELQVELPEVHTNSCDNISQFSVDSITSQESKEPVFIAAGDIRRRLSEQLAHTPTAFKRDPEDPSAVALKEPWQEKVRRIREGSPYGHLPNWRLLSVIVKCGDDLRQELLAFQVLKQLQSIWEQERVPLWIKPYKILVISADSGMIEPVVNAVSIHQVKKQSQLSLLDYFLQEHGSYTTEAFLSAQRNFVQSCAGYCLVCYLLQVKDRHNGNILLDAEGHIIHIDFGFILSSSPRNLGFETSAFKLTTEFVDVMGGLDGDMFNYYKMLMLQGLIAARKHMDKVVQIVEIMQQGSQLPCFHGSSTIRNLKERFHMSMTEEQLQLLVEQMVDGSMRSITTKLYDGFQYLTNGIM

Data set [1] concerns human small cell lung cancer cell line H446. The data set is described as follows: Anti-tumor efficacy in H446 xenograft model in nude mice. As to conditions: for tumor growth inhibition (TGI): every two days, H446 xenograft nude mice; for inhibitory effect against the growth of human lung cancer H446 xenografts in nude mice: result in words. A general note: In xenograft studies the graft and the host belong to different species.

A short description of data set [2]: Structural stability under acidic conditions.
The next data set relates to various tumor cell lines. Conditions: panel of 8 cell lines.
For another data set, the system named is PC3. The data set is described as follows: Anti-proliferative activity, CCK 8 assay. As to conditions: read-out: Anti-proliferative activity (IC50, µM) PC3; PC3, 48 h incubation.
The test system of another data set is MCF-7. The data set is described as follows: Anti-proliferative activity, CCK 8 assay. As to conditions: read-out: Anti-proliferative activity (IC50, µM) MCF-7; MCF-7, 48 h incubation.
A further data set concerns the target PI4KIIIβ (Homo sapiens, UniProt Q9UBF8). The data set is described as follows: PI4KIIIβ inhibition assay (ADP-Glo Luminescent Kinase Assay). Conditions: read-out: PI4KIIIβ inhibitory activity (IC50); 50 µM PIP2, 25 µM ATP, room temperature 1 h.
A further data set concerns A549. The data set is described as follows: Anti-proliferative activity, CCK 8 assay. As to conditions: read-out: Anti-proliferative activity (IC50, µM) A549; A549, 48 h incubation.
Another data set deals with HCT116. The data set is described as follows: Anti-proliferative activity, CCK 8 assay. As to conditions: read-out: Anti-proliferative activity (IC50, µM) HCT116; HCT116, 48 h incubation.
The next data set has as its system MDA-MB-231. The data set is described as follows: Anti-proliferative activity, CCK 8 assay. Conditions: read-out: Anti-proliferative activity (IC50, µM) MDA-MB-231; MDA-MB-231, 48 h incubation.
The subject of the next data set is DU145. The data set is described as follows: Anti-proliferative activity, CCK 8 assay. As to conditions: read-out: Anti-proliferative activity (IC50, µM) DU145; DU145, 48 h incubation.
The next data set has as its system HT29. The data set is described as follows: Anti-proliferative activity, CCK 8 assay. As to conditions: read-out: Anti-proliferative activity (IC50, µM) HT29; HT29, 48 h incubation.
The test system of a further data set is H446. The data set is described as follows: Anti-proliferative activity, CCK 8 assay. Conditions: read-out: Anti-proliferative activity (IC50, µM) H446; H446, 48 h incubation.

SMILES strings stand for the structures. A value given as a limit tells only on which side of the number the result lay.

Consider `CCCCCC(=O)Nc1nc(C)c(-c2ccc(OC)c(S(=O)(=O)NCc3ccc(F)cc3F)c2)s1`, for which the “tumor growth inhibition (TGI)” value in data set [1] (oral dose of 150 mg/kg) is reported as 42.2%. The “inhibitory effect against the growth of human lung cancer H446 xenografts in nude mice” value in [1] is “significant inhibitory effect”.
In the case of `CCCCCC(=O)Nc1nc(C)c(-c2ccc(OC)c(S(=O)(=O)NCCNC(=O)OC(C)(C)C)c2)s1`, the “structural stability under acidic conditions” value in data set [2] is reported as “structural instability”. Further, the “cell lines with nanomolar-level inhibitory activity” value with various tumor cell lines was 6 out of 8. Further, the “tumor growth inhibition (TGI)” value in [1] (20 mg/kg, injection) is listed as 25.7%; in data set [1] (30 mg/kg, injection), 37.1%. Also, the “inhibitory effect against the growth of human lung cancer H446 xenografts in nude mice” value in data set [1] is reported as “significant inhibitory effect”.
`CCCCCC(=O)Nc1nc(C)c(-c2ccc(OC)c(S(=O)(=O)NCc3ccc(F)c(Cl)c3)c2)s1`: the IC50 with PC3 and with MCF-7 was 0.19 µM each time.
For the molecule `COc1ccc(-c2sc(NC(=O)CCCCC(C)=O)nc2C)cc1S(=O)(=O)NCCNC(=O)OC(C)(C)C`, the “structural stability under acidic conditions” value in data set [2] is “structural instability”. For the same molecule, in [1] (30 mg/kg, injection), the “tumor growth inhibition (TGI)” value is 30.2%.
As for `COc1ccc(-c2sc(NC(C)=O)nc2C)cc1S(=O)(=O)Nc1ccc(F)cc1F`, the IC50 at PI4KIIIβ is 0.015 µM; in the data set with PC3, more than 4 µM; in the data set on A549, more than 4 µM; in the data set with HCT116 it was more than 4 µM; with MDA-MB-231 it was more than 4 µM; in the data set with DU145 it was more than 4 µM. Besides, the IC50 in the data set with HT29, in the data set on H446 and with MCF-7 was more than 4 µM in each case.
Consider `CCCCCC(=O)Nc1nc(-c2ccc(OC)c(S(=O)(=O)NCc3ccc(F)cc3F)c2)c(C)s1`, for which the IC50 at PI4KIIIβ is more than 0.5 µM; in the data set on PC3, more than 4 µM; with A549, more than 4 µM; in the data set on HCT116, more than 4 µM; in the data set with MDA-MB-231 it was more than 4 µM; with DU145 it was more than 4 µM. Further, the IC50 in the data set with HT29, with H446 and in the data set with MCF-7 was more than 4 µM throughout.
`CC(=O)Nc1nc(C)c(-c2ccc(Cl)c(S(=O)(=O)Nc3ccc(C)c(O)c3)c2)s1`: the IC50 at PI4KIIIβ stood at 0.038 µM.
On to `CCCCCC(=O)Nc1nc(C)c(-c2ccc(OC)c(S(=O)(=O)NCC(C)(C)O)c2)s1`, for which the IC50 at PI4KIIIβ is 0.0049 µM; in the data set on PC3, more than 4 µM; with A549 it was more than 4 µM; in the data set with HCT116, more than 4 µM; in the data set on MDA-MB-231, more than 4 µM; with DU145 it was more than 4 µM. The IC50 with HT29, in the data set on H446 and in the data set with MCF-7 was more than 4 µM in each case.
`CC(=O)Nc1nc(C)c(-c2ccc(Cl)c(S(=O)(=O)NCCO)c2)s1`: the IC50 in the data set on PC3 was 3.53 µM; in the data set with A549, more than 4 µM; in the data set on HCT116 it was 3.73 µM; in the data set with MDA-MB-231, 3.12 µM; with DU145, more than 4 µM; with HT29, 1.94 µM. Moreover, the 50% inhibitory concentration (IC50) in the data set on H446 stood at 0.68 µM; in the data set with MCF-7, 3.3 µM.
On to `Cc1nc(NC(=O)CC(C)C)sc1-c1ccc(Cl)c(S(=O)(=O)NCCNC(=O)OC(C)(C)C)c1`, for which the IC50 on PI4KIIIβ is 0.089 µM; in the data set with PC3 it was 0.37 µM; in the data set with A549, 0.92 µM; in the data set on HCT116, 0.53 µM; in the data set on MDA-MB-231 it was 0.77 µM; with DU145 it was 0.48 µM. In addition, the results for the IC50 in the data set with HT29, with H446 and in the data set on MCF-7 were 0.094 µM, 0.071 µM and 0.86 µM, respectively.

For the origin of these results see patent EP4837901A1, “PHENYLTHIAZOLAMINE-BASED PI4KIIIß INHIBITOR, PREPARATION METHOD THEREFOR, PHARMACEUTICAL COMPOSITION THEREOF AND USE THEREOF” (dated 2026).
